Experimental data as given in PubChem BioAssay AID1359 (The Scripps Research Institute Molecular Screening Center, 2008).
Where “and” joins values, the source holds several entries; their conditions need not be identical. Equal entries are not always repeated. This is a selection; strong and weak results do not stand in their true shares. Calls of active or inactive are those of the source. Cut-off read from the data, not from the text of the source: active = activation above about 27%; inactive = the rest.

Chains of the proteins cited; added tags and fusions are not shown.
UniProt P49146, whole entry, looked up: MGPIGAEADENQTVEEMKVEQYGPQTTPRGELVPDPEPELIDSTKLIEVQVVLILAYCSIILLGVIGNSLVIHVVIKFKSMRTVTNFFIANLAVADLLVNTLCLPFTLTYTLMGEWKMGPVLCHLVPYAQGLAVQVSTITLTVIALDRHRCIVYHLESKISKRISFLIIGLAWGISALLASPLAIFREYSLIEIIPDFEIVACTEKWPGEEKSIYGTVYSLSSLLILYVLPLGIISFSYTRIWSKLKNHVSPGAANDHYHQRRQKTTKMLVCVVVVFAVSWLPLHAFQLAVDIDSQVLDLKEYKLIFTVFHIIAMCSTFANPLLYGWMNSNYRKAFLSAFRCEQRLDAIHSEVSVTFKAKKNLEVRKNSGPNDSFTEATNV

Molecular target: Neuropeptide Y receptor type 2 (Homo sapiens) (UniProt P49146)
Assay: NPY-Y2 potentiators or agonists, primary screen, cell-based (AID 1359);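 note: cells stimulated with NPY near EC25 plus isoproterenol at EC100; 0% = vehicle plus submaximal agonist and 100% = vehicle plus saturating agonist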
Conditions: cells expressing NPY-Y2, potentiator/agonist read-out; at 3.6 µM; stronger effect = higher value

Structure (SMILES) | activation
O=C(OC1CN2CCC1CC2)C12CC3CC(CC(C3)C1)C2 (stereo unspecified) | inactive: -9.6%
COc1ccc(N/C(=N/P(=O)(N2CCOCC2)N2CCOCC2)N2CCOCC2)cc1 | inactive: -6.09%
CN1CCCC(OC(=O)C(c2ccccc2)c2ccccc2)C1 (stereo unspecified) | inactive: 12.7%
Clc1ccc(Cl)c(NC2=NCC(CBr)S2)c1 (stereo unspecified) | inactive: 9.42%
Cc1ccc(OP(=O)(Nc2nccs2)Oc2ccc(C)cc2)cc1 | inactive: -10.8%
COc1ccccc1OP(=O)(Nc1ccc(C)cn1)Oc1ccccc1OC | inactive: -6.9%
Cc1ccc(N/C(=N/P(=O)(N2CCOCC2)N2CCOCC2)N2CCOCC2)cc1 | inactive: -2.07%
NC(=O)c1cc([N+](=O)[O-])cc([N+](=O)[O-])c1N | inactive: -3.5%
O=C(NC(Sc1ccncn1)C(Cl)(Cl)Cl)c1ccccc1 (stereo unspecified) | inactive: 0.3%
Cc1c2non([O-])c-2c(C)[n+](=O)[n+]1[O-] | inactive: 4.66%
Oc1ccccc1CNc1ccccn1 | inactive: 11.3%
Nc1cc(N)c2nonc2c1[N+](=O)[O-] | inactive: -10.4%
CC(C)CC(=O)NC(Sc1ccc(Cl)cc1)C(Cl)(Cl)Cl (stereo unspecified) | inactive: -13.3%
Cc1ccc(NP(=O)(Oc2ccccc2F)Oc2ccccc2F)nc1 | inactive: 9.44%
Cc1cc(SC(NC(=O)c2ccc(F)cc2)C(Cl)(Cl)Cl)ncn1 (stereo unspecified) | inactive: 2.7%
CCOP(=O)(Nc1ccccc1)OCC | inactive: -6.77% and inactive: 19.8%
O=P(Nc1nc2ccc(Cl)cc2s1)(c1ccccc1)c1ccccc1 | inactive: 5.18%
CC(=O)Nc1ccc([As](=O)(O)O)cc1 | inactive: -1.78%
O=C(O)c1ccccc1[As](=O)(O)O | inactive: 12.4%
Nc1cccc2ccc([As](=O)(O)O)cc12 | inactive: 3.6%
CCN(N=Nc1nonc1N)c1nonc1N | inactive: 3.01%
O=C(Nc1cc([As](=O)(O)O)ccc1O)c1ccccc1 | inactive: -10.6%

Structure (SMILES) | activation
O=C(O)CNc1ccc([As](=O)(O)O)cc1 | inactive: -16.6%
O=[N+]([O-])c1cccc(NC2=NCC(CBr)S2)c1 (stereo unspecified) | inactive: 0.35%
O=[N+]([O-])c1ncn(CCn2ncnc2[N+](=O)[O-])n1 | inactive: 0.7%
CC(C)(C)C(=O)NC(Sc1ccncn1)C(Cl)(Cl)Cl (stereo unspecified) | inactive: -1.38%
O=[N+]([O-])c1cc([N+](=O)[O-])c(CCNc2ccccc2)c([N+](=O)[O-])c1 | inactive: 7.05%
CCc1nc2c(n1)c1c(non1O)c1c2no[n+]1[O-] | inactive: -28.4%
Cc1ccc(NP(=O)(Oc2ccccc2)Oc2ccccc2)nc1 | inactive: -5.93%
CC(=O)N1C2C3N(C(C)=O)C1C1N(C(C)=O)C(C(N1C(C)=O)N3C(C)=O)N2C(C)=O | inactive: -17.7%
O=[N+]([O-])c1cccc2n[nH]nc12 | inactive: -0.2%
COc1ccc(C2=NCC(CBr)S2)cc1 (stereo unspecified) | inactive: 3.73%
CC1CCN(C(=O)Oc2c(Cl)cc(Cl)c3cccnc23)CC1 | inactive: -1.6%
CN(C)C(=O)OCCc1n(C)cc[n+]1C | inactive: 5.92%
CC(C)=N/N=C(\N)N[N+](=O)[O-] | inactive: -2.18%
CCN(/C(=N/P(=O)(N1CCOCC1)N1CCOCC1)N1CCOCC1)c1ccc(OC)cc1 | inactive: 7.73%
C[N+]1=C2C=CC=CC=C2SC12C([N+](=O)[O-])=CC([N+](=O)[O-])=C[C-]2[N+](=O)[O-] (stereo unspecified) | inactive: 3.01%
Nc1ccc([As](=O)(O)c2ccc(N)cc2)cc1 | inactive: -13.3%
c1nnnn1CCn1cnnn1 | inactive: 5.65%
O=P(Nc1nccs1)(c1ccccc1)c1ccccc1 | inactive: -14.2%
CC(C)C(=O)NC(Sc1ccccc1)C(Cl)(Cl)Cl (stereo unspecified) | inactive: 13.2%
O=P(Nc1nc2ccccc2s1)(c1ccccc1)c1ccccc1 | inactive: -7.62%
O=P(Nc1ccccn1)(c1ccc(Br)cc1)c1ccc(Br)cc1 | inactive: -5.62%
O=C(OC1CN2CCC1CC2)c1cccc(Cl)c1 (stereo unspecified) | inactive: 3.96%

Structure (SMILES) | activation
C(Cc1nn[nH]n1)Cc1nn[nH]n1 | inactive: -1.06%
Nc1ccc([As](=O)(O)c2ccc([N+](=O)[O-])cc2)cc1 | inactive: -7.06%
O=[As](O)(c1ccccc1)c1ccc(O)cc1 | inactive: 6.63%
CC(=O)NC(SC(=S)N(C)C)C(Cl)(Cl)Cl (stereo unspecified) | inactive: 16.8%
O=[N+]([O-])c1ncn(CCn2cnc([N+](=O)[O-])n2)n1 | inactive: -4.2%
Cc1ccc(NP(=O)(Oc2cccc(C)c2)Oc2cccc(C)c2)nc1 | inactive: -8.64%
CCOC(=O)NC(Sc1ccccc1)C(Cl)(Cl)Cl (stereo unspecified) | inactive: -9.21%
c1ccc(-c2nn[nH]n2)c(-c2nn[nH]n2)c1 | inactive: -6.82%
O=C(NC1CCS(=O)(=O)C1)NP(=S)(Oc1ccccc1)Oc1ccccc1 (stereo unspecified) | inactive: -1.07%
CCNC(=S)/N=C(\N)N[N+](=O)[O-] | inactive: -2.13%
O=c1c2cc([N+](=O)[O-])ccc2[nH]c2c([N+](=O)[O-])cc([N+](=O)[O-])cc12 | inactive: 10.8%
CN(C)C(=O)Oc1noc2ccccc12 | inactive: -6.08%
Cc1ccccc1OP(=O)(Nc1ccccn1)Oc1ccccc1C | inactive: -2.92%
CCC(=O)N1C2C3N(C(=O)CC)C1C1N(C(=O)CC)C(C(N1C(=O)CC)N3C(=O)CC)N2C(=O)CC | inactive: 15.2%
CC(=O)NC(SC(=S)N(CC(C)C)CC(C)C)C(Cl)(Cl)Cl (stereo unspecified) | inactive: -14.4%
Cc1ccc(OP(=O)(Nc2ccccn2)Oc2ccc(C)cc2)cc1 | inactive: -1.11%
COC(=O)c1cc2c(s1)N=C(c1ccccc1)N(C)P2(=O)N1CCOCC1 (stereo unspecified) | inactive: 3.11%
CC(C)(C)C(=O)NC(Sc1ccccc1)C(Cl)(Cl)Cl (stereo unspecified) | inactive: 3.62%
CCOc1ccc(C2=NCC(CBr)S2)cc1 (stereo unspecified) | inactive: 12.2%
O=P1(Nc2nc3ccc(Cl)cc3s2)COc2ccccc2O1 (stereo unspecified) | inactive: -5.82%
CC(=O)Nc1ccc(Oc2c([N+](=O)[O-])cc([N+](=O)[O-])cc2[N+](=O)[O-])cc1 | inactive: -9.48%
CC(=O)Nc1ccc([As](=O)(O)O)c(O)c1 | inactive: -8.58%
